Ki data for one compound are collected here from ChEMBL document CHEMBL5126521, “Analgesic Opioid Ligand Discovery Based on Nonmorphinan Scaffolds Derived from Natural Sources” (J Med Chem, 2022).

Sequences of proteins named here, by UniProt entry; tags and fusion partners are left off. A change or cut given only in a name is not applied to a line headed by its entry.
UniProt P41145: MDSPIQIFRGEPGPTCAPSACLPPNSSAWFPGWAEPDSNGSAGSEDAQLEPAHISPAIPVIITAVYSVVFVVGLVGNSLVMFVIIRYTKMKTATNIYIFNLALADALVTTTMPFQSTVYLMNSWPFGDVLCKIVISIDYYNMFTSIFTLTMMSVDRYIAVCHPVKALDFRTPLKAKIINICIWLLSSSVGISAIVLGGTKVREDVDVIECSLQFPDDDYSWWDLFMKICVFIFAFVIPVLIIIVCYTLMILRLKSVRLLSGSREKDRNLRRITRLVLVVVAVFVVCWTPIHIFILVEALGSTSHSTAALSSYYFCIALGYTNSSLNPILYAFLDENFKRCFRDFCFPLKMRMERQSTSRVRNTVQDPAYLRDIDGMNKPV

For this assay, the target named is Kappa-type opioid receptor (Homo sapiens, UniProt P41145).

For orientation: Ki means the equilibrium dissociation constant of an inhibitor or competing ligand from its target.

For the compound `Cc1cc(O)cc(C)c1C[C@H](N)C(=O)N[C@H](CCCNC(=N)N)C(=O)N[C@@H](Cc1ccccc1)C(=O)N[C@@H](CCCCN)C(N)=O`, the affinity corresponds to a Ki of 2410 nM. That is a single-digit micromolar value.
